From US7351728B2, “Oxazolyl-aryloxyacetic acid derivatives and their use as PPAR agonists” (Eli Lilly and Company, priority 2003, dated 2008)

Tested on: huPPARα
Experiment: Cotransfection assay in CV-1 cells, luciferase reporter (GAL4 chimeric system)
Assay type: cell-based, human
Details: cotransfection efficacy relative to PPARα agonist reference molecule
Procedure: Cotransfection assays were carried out in CV-1 cells.

## Cc1oc(-c2ccccc2)nc1CCOc1ccc(OC(C)(Cc2ccccc2)C(=O)O)cc1 (stereo not shown) [Example 6, 2-Methyl-2-{4-[2-(5-methyl-2-phenyloxazol-4-yl)ethoxy]phenoxy}-3-phenylpropionic acid]
  huPPARα CTF Eff. (%): 80%
